# Literature values, collected in patent publication US20220089531A1, “NEW SALICYLIC ACID DERIVATIVES, PHARMACEUTICALLY ACCEPTABLE SALT THEREOF, COMPOSITION THEREOF AND METHOD OF USE THEREOF” (THE GOVERNING COUNCIL OF THE UNIVERSITY OF TORONTO, priority 2018, published 2022).
# By UniProt entry, the sequences of proteins in these tests, tags left out.
# UniProt P40763, whole entry: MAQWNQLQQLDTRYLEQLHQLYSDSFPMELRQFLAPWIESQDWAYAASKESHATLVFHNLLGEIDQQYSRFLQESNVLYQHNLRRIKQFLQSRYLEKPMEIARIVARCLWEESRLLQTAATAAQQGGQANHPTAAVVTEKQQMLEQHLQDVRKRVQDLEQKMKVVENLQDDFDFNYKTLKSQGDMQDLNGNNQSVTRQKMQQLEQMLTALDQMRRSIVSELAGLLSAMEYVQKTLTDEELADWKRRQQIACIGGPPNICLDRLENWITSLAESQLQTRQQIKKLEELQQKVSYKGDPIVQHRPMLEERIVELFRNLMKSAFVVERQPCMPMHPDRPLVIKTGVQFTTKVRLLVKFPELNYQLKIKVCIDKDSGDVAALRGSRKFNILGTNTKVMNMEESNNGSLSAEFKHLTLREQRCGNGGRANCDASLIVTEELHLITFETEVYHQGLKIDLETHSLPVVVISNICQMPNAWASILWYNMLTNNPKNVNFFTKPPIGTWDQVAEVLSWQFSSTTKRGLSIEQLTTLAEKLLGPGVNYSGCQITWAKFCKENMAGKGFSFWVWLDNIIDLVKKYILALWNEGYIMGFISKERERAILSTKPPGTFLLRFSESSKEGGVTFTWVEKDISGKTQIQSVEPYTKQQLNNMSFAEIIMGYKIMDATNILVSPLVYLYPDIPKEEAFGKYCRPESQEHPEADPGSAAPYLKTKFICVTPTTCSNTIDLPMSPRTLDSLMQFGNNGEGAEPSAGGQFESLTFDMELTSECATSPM
# Biological target: STAT3 (Homo sapiens, UniProt P40763)
# Settings: STAT3 versus 93% homologous STAT1; cited from earlier work
substance,measurement,value
BP-1-102,selectivity for STAT3: fold less binding to STAT1,over 10 fold
